# scFv variants of Ab-14 (heavy chain) against a SARS-CoV-2 spike peptide

The target is the same throughout: PDVDLGDISGINAS, from the HR2 region of SARS-CoV-2 spike.

Each scFv is VH, the linker GGGGSGGGGSGGGGS, VL, as in the parent Ab-14, and differs from it in the CDRs of the heavy chain only.
VH: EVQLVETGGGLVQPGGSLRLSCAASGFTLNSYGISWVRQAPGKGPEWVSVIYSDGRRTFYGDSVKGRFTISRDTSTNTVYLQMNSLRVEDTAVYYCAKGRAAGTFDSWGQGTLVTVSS
VL: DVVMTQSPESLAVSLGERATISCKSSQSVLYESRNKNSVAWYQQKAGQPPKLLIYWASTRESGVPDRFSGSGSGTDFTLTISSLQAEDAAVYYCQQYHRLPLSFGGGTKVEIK

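The parent was found by panning a naive human phage display library on the peptide. Library AAYL49 holds single substitutions and randomly drawn double and triple substitutions in the CDRs. AlphaSeq pools MATa yeast showing the antibodies with MATalpha yeast showing the peptide. After mating in shaken culture at 30 °C for 16 h, diploids were selected and their barcode pairs sequenced. The ratio of observed to expected reads was calibrated, replicate by replicate, on BCL2-family standards whose Kd was known from biolayer interferometry. The assay was run in three technical replicates.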

Variants are written as CDR1, CDR2 and CDR3 of the heavy chain (limits as in the source). Parent: GFTLNSYGIS, VIYSDGRRTFYGDSVK, GRAAGTFDS.
Every variant below is changed at F27 of the VH (sequential numbering).
Scale: log10 of Kd in nM, estimated from mating counts; low values are strong binders.
The mean shown is taken over the replicates in which the pair was detected.
Where no diploid with the target was found in that replicate, the entry reads "nd": below detection, most likely a poor binder, though not proof of it.
As a blank, each scFv also met three strains without target: over library AAYL49, 15% of these pairings were detected, typically at 4.06 and seldom below 2.83. For each scFv, signals with the empty controls are counted beside the result, with their mean in brackets.

CDR-H1,CDR-H2,CDR-H3,log10 Kd (nM) by replicate,mean log10 Kd (nM),signal with controls
WQTLNSYGIS,VIYSDGRRTFYGDSVK,GPAAGTFDS,nd nd nd,nd,1/9 (4.67)
GYTLNSYGIS,LIYSDGRRTFYGDSVK,GRAAGTEDS,nd nd nd,nd,0/9
GNTLNSYGIS,VIYSDGRRTFYGDSVK,GQKAGTFDS,1.57 1.57 1.86,1.67,1/9 (3.66)
GPTGNSYGIS,VIYSDGRRTFYGDSVK,GRRAGTFDS,nd nd nd,nd,0/9
GWTLNSYEIS,VIYSDGRRTFCGDSVK,GRAAGTFDS,nd nd nd,nd,4/9 (3.90)
GRLLNSYGIS,VIYSDGRRTFYGDSVK,GRAAGTFDS,nd nd nd,nd,0/9
GLTLNSYGIK,VIYSDGRRTGYGDSVK,GRAAGTFDS,nd nd 3.51,3.51,2/9 (2.97)
GKTLNSYGIS,VIYSDGYRTAYGDSVK,GRAAGTFDS,0.83 1.14 0.91,0.96,2/9 (4.53)
GGTLNSYGIS,VIYSDGRRRFYGDSVK,GRAAGTFDS,5.70 nd nd,5.70,2/9 (3.87)
GATLNSYVIS,VIYSDGRRTFYGDSVK,GRAAGTFFS,nd nd nd,nd,2/9 (4.26)
GATLNSYPIS,VIYSDGRRTFYGDSVK,GRAAGTFWS,nd nd nd,nd,0/9
GYTLWSYGIS,VIYSDGYRTFYGDSVK,GRAAGTFDS,4.03 nd 3.87,3.95,3/9 (4.56)
GMTLNSYGIS,VIYSLGRRTFYGDSVK,GRAAGTYDS,nd nd nd,nd,0/9
GMTLNSYGIS,VIVSDGRRTFYGDSVK,GNAAGTFDS,nd nd 3.44,3.44,2/9 (3.30)
GITLRYYGIS,VIYSDGRRTFYGDSVK,GRAAGTFDS,4.00 2.78 3.77,3.52,3/9 (4.00)
GMTLNSYNIS,VIYSTGRRTFYGDSVK,GRAAGTFDS,nd nd nd,nd,2/9 (3.15)
GGTLNSYGVS,VIYSDGRRTFYGDSVK,GRAAGTFMS,4.93 nd nd,4.93,0/9
GATLNSMGIS,LIYSDGRRTFYGDSVK,GRAAGTFDS,nd nd 4.16,4.16,2/9 (3.92)
GITLNSYGIS,MIYSDGRRTFYGDSVK,GRAAGTFDT,nd nd nd,nd,1/9 (3.23)
GSTLNSYGIS,VIYSDGRRTFYGDSVK,GRAAGTFLS,2.72 1.95 1.87,2.18,1/9 (3.89)
GYTLNSYGIA,VIYSDGRRTFYGDSVK,GRAAGTFDS,nd nd nd,nd,0/9
GNTLNSYGIW,VIYSDGRRTFYGDSVK,GRAAGTHDS,nd nd nd,nd,1/9 (3.26)
GDTLNSYGIS,VIYSDGRRTFYGTSVK,GRAEGTFDS,nd nd nd,nd,0/9
KNTLNSYGIS,VIYSDGRRTFYDDSVK,GRAAGTFDS,0.57 0.73 0.43,0.58,1/9 (3.58)
GWTLNSYGIS,VIKSDGRRTFYGDSVK,TRAAGTFDS,nd nd nd,nd,0/9
GITLNSYGIS,VIYSDGRRTFYGDSVK,GRAAGTFDG,nd nd nd,nd,0/9
GDTLNSYGIS,VIYLDGRRTFYGDSVR,GRAAGTFDS,3.67 2.78 3.27,3.24,1/9 (4.43)
GMTLNSYGIS,AIYSDGRRTFYGLSVK,GRAAGTFDS,2.99 4.25 nd,3.62,0/9
GYTLNSMGIS,VIYSDCRRTFYGDSVK,GRAAGTFDS,nd nd nd,nd,0/9
GHTLNSYGIS,VIYSFGRRTFYGDIVK,GRAAGTFDS,nd nd 4.19,4.19,0/9
GTTLNSYGIS,VIYSDGRRTFYGDSVK,GRAAGHMDS,nd nd nd,nd,1/9 (4.34)
GITLNSYGIS,VIYSDGRRTFYGDSIK,NRAAGTFDS,nd nd nd,nd,0/9
GTTLNSYGIS,VIYSDGRRTFYGDSVK,GRAAGTFKS,nd nd nd,nd,0/9
GETLNSYGIS,VIYSDGRRTFYGDSNK,GRAAGTFDS,nd nd nd,nd,0/9
GATLNSYGIS,VIYSDGRRTFYSDSVK,GRAAGTFDS,0.31 0.72 0.63,0.55,0/9
GRTHNSYGIS,VIYSDGRRTFYGDSVK,GRAAGTTDS,nd 3.98 4.44,4.21,0/9
GATLWSYGIS,VIYSDGRRTFYGDSVK,GRAAGTFDS,3.08 2.68 3.22,2.99,3/9 (3.89)
GGTLNSYGIR,VIYSDGRRTFYGDSVK,GRAAGTFDS,nd nd nd,nd,2/9 (3.65)
GPTLNSYGIS,VIYSDGRRTFYGDHVK,GRAAWTFDS,nd nd 2.70,2.70,0/9
GTTLNIYGIS,VIYSDGRRTFYGDSVK,GRAAGIFDS,nd nd nd,nd,0/9
GETLNSYGIS,VIYSDGRRTSYGDSVK,GFAAGTFDS,nd nd nd,nd,0/9

Repeated from above, the 5 best binders with a signal in all replicates:

| CDR-H1 | CDR-H2 | CDR-H3 | log10 Kd (nM) by replicate | mean log10 Kd (nM) | signal with controls |
|---|---|---|---|---|---|
| GATLNSYGIS | VIYSDGRRTFYSDSVK | GRAAGTFDS | 0.31 0.72 0.63 | 0.55 | 0/9 |
| KNTLNSYGIS | VIYSDGRRTFYDDSVK | GRAAGTFDS | 0.57 0.73 0.43 | 0.58 | 1/9 (3.58) |
| GKTLNSYGIS | VIYSDGYRTAYGDSVK | GRAAGTFDS | 0.83 1.14 0.91 | 0.96 | 2/9 (4.53) |
| GNTLNSYGIS | VIYSDGRRTFYGDSVK | GQKAGTFDS | 1.57 1.57 1.86 | 1.67 | 1/9 (3.66) |
| GSTLNSYGIS | VIYSDGRRTFYGDSVK | GRAAGTFLS | 2.72 1.95 1.87 | 2.18 | 1/9 (3.89) |

In this assay the parent's reference entry averaged 0.65; its copy inside this library read 4.11 (one replicate of three).

The measurements come from Engelhart et al. 2022 (doi:10.1038/s41597-022-01779-4) through the FLAb antibody collection.